The list shows a part of the results, in another mix than the full data. Calls of active or inactive are those of the source. Cut-off read from the data, not from the text of the source: active = potentiation above about 30%; inactive = the rest.

Amino acid sequences for entries named in this document (tags omitted).
UniProt P21728, whole entry: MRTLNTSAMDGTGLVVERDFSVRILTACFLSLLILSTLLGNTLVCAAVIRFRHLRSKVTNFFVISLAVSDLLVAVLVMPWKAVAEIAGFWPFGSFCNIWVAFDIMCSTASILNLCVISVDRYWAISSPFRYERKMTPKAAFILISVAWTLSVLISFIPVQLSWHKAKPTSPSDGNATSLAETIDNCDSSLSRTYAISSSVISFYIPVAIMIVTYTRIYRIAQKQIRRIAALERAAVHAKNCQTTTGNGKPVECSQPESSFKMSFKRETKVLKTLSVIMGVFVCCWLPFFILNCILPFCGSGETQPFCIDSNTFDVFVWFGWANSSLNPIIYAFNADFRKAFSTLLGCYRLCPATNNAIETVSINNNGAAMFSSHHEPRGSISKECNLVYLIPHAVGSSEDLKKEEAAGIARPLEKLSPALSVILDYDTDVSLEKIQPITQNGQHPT

This experiment concerns the target D(1A) dopamine receptor (Homo sapiens) (UniProt P21728). In words: Potentiators of Human D1 Dopamine Receptor: qHTS. Note: 0% is about no effect. As to conditions: HEK293 TREx D1 cells, calcium flux, dopamine EC20 potentiation; at 10 µM; hits give high values. In general terms: qHTS replaces the single test concentration by a dilution series.
Regarding `O=[N+]([O-])c1ccc2c(c1)C=Nc1ccccc1O2`, the potentiation is inactive: -2.75%.

On to `Cc1cccc(C)c1OP(C)(N)=O` (stereo not drawn), for which the potentiation was inactive: -5%. Next, `CC(C)(C)c1ccc(OP(C)(=O)Nc2ccc(SC(F)(F)F)cc2)cc1` (stereo not drawn): inactive: -4.15%; `O=[N+]([O-])c1cc([N+](=O)[O-])c(Nc2cccnc2)c([N+](=O)[O-])c1`: inactive: -7.65%; `Cc1cc(C)cc(OP(C)(N)=O)c1` (stereo not drawn): inactive: 0.85%. Next, `COc1ccc(OP(C)(=O)Nc2cccc(F)c2)cc1` (stereo not drawn): inactive: 7.38%; `COc1ccccc1OP(C)(=O)Nc1cc(Cl)ccc1C` (stereo not drawn): inactive: -1.05%; `Cc1ccc(NP(C)(=O)Oc2ccccc2)c(C)c1` (stereo not drawn): inactive: -3.65%. Take `COc1ccccc1OP(C)(=O)Nc1ccc(C)cc1` (stereo not drawn): the potentiation was inactive: 6.3%. As for `CCOC(=O)c1ccc(NP(C)(=O)Oc2ccccc2)cc1` (stereo not drawn), the potentiation was inactive: -0.85%. Next, `CCN(CC)CCCOC(=O)C(O)(c1ccccc1)c1ccccc1`: inactive: -3%; `Cc1cc(C)cc(OP(C)(=O)Nc2ccc(SC(F)(F)F)cc2)c1` (stereo not drawn): inactive: 3.8%. The figure for `CCc1ccc(OP(C)(=O)N2CCN(c3ccc([N+](=O)[O-])cc3)CC2)cc1` (stereo not drawn) is inactive: -6.28%. The figure for `CP(=O)(NC(=O)Nc1ccccc1)Oc1ccccc1` (stereo not drawn) is inactive: -8.4%; for `CP(=O)(Oc1ccccc1)OC(c1ccccc1)C(F)(F)F` (stereo not drawn) it is inactive: -3.3%. Regarding `CP(=O)(Nc1ccc(SC(F)(F)F)cc1)Oc1ccc(Cl)cc1` (stereo not drawn), the potentiation is inactive: -9.6%. The figure for `Cc1cccc(C)c1OP(C)(=O)Nc1ccc(SC(F)(F)F)cc1` (stereo not drawn) is inactive: -3.65%; for `CP(=O)(Nc1ccccn1)Oc1ccc(Cl)cc1` (stereo not drawn) it is inactive: -6.3%.

In the case of `CCOC(=O)c1ccc(NP(C)(=O)Oc2ccc(OC)cc2)cc1` (stereo not drawn), the potentiation was inactive: 4.9%. With `CCOP(C)(=S)SCC(=O)NC(C)C(=O)O` (stereo not drawn), the potentiation was inactive: 3.45%.

With `CP(=O)(Nc1ccccc1Br)Oc1ccccc1` (stereo not drawn), the potentiation was inactive: 2.1%. The figure for `COc1ccccc1OP(C)(=O)Nc1ccccc1` (stereo not drawn) is inactive: 7.45%; for `CP(=S)(Nn1cnnc1)Oc1ccccc1` (stereo not drawn) it is inactive: -3.75%.

These data come from PubChem BioAssay AID504651 (National Center for Advancing Translational Sciences (NCATS), 2011).
